{
  "source": "patent US9303088B2",
  "about": "“Detecting and treating breast cancer resistance to EGFR inhibitors” (The Regents of the University of California, priority 2009, dated 2016)",
  "system": "FAM83A overexpressing T4-2 cells",
  "assay": "Phenotypic reversion of FAM83A-overexpressing T4-2 cells in 3D lrECM with inhibitors",
  "assay_type": "cell-based, human",
  "settings": "FIG. 17C",
  "data": [
    {"smiles": "COc1cc2ncnc(Nc3ccc(F)c(Cl)c3)c2cc1OCCCN1CCOCC1", "note": "[gefitinib]", "values": [
      {"measurement": "structure of FAM83A-overexpressing T4-2 cells in presence of EGFR inhibitor", "result": "maintained disorganized structures"}
    ]}
  ]
}
